{"source": "patent US3959283A", "about": "“Amino-derivatives of 1,4-benzodioxan” (Laboratoire L. Lafon, priority 1974, dated 1976)", "system": "adrenergic receptors", "assay": "Inhibition/reversal of tension effects of adrenalin, intravenous (products of Examples 11 to 13)", "format": "in vivo", "conditions": "adrenalin alone, animal itself as control", "method": "the doses of CRL 40,150 from 0.5 to 4 mg/kg being administered successively.", "data": [{"compound": "CNCC(O)c1ccc(O)c(O)c1", "note": "(stereo not shown) [adrenalin]", "values": [{"measurement": "effect of adrenalin (hypertension)", "value": 152, "unit": "%"}]}]}
